The values below come from patent publication US20110142757A1, “NOVEL COMPOUNDS AND THEIR USES IN DIAGNOSIS” (the University of Sydney, priority 2008, published 2011).

Protein sequences, listed by entry. Tags and fused reporters are not part of them.
UniProt P30536, whole entry: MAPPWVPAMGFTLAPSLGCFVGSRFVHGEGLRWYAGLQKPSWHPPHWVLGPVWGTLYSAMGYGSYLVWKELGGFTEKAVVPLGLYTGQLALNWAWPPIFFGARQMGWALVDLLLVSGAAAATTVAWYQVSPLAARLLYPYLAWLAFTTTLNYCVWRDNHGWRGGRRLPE

Read-outs that look alike come from different tables or passages of the source.

This test concerns the target human TSPO (Homo sapiens, UniProt P30536). In words: [3H]PK11195 competition binding assay, mitochondrial membranes of HEK293 cells transfected with human TSPO.
Setting [1] is: read-out: Binding Affinity (Ki) ± Standard Error, Site 1, competition with 6 nM [3H]PK11195, one-site or two-site competition fit.
Where [2] appears, read: read-out: Binding Affinity (Ki) ± Standard Error, Site 2, competition with 6 nM [3H]PK11195, two-site competition fit.

On to `CCN(CC)C(=O)Cc1c(-c2ccc(OCCCCCCCCCCCCOc3ccc(-c4nn5c(C)cc(C)nc5c4CC(=O)N(CC)CC)cc3)cc2)nn2c(C)cc(C)nc12`, for which the Ki (as a rule, the equilibrium dissociation constant of an inhibitor or competing ligand from its target) amounted to 0.052 nM under setting [1] and 48.7 nM under setting [2].

Turning to `CCN(CC)C(=O)Cc1c(-c2ccc(OCCCCOc3ccc(-c4nn5c(C)cc(C)nc5c4CC(=O)N(CC)CC)cc3)cc2)nn2c(C)cc(C)nc12`, under setting [1], the Ki worked out at 5.99 nM.

For the compound `CCN(CC)C(=O)Cc1c(-c2ccc(OCCCCCCCCOc3ccc(-c4nn5c(C)cc(C)nc5c4CC(=O)N(CC)CC)cc3)cc2)nn2c(C)cc(C)nc12`, the Ki under setting [1] was 0.332 nM and the Ki under setting [2] was 51.3 nM.

With `CCN(CC)C(=O)Cc1c(-c2ccc(OCCCCCCOc3ccc(-c4nn5c(C)cc(C)nc5c4CC(=O)N(CC)CC)cc3)cc2)nn2c(C)cc(C)nc12`, the Ki by setting is: under setting [1], 0.009 nM; under setting [2], 11.5 nM.
